One assay has as its target CSF1R autoinhibited (Homo sapiens, UniProt P07333). In words: biochemical. As for the experimental part:
(§1) DiscoverX® KINOMEscan™ In Vitro Kinase Competition Binding Assay
(§2) Compound activity (% binding) is monitored by measuring the amount of kinase captured in test versus control samples by using a qPCR method that detects the associated DNA label. The binding activity is converted to % inhibition and an IC50 value is determined for CSF-1R fold-selectivity assessment.
(§3) Assays to monitor binding to a 468-kinase panel are conducted at DiscoverX® Corporation (Fremont, CA). Test compound is provided as a 10 mM stock in 100% DMSO and evaluated at […] final concentrations. Kinases are tagged with DNA for qPCR detection. Streptavidin-coated magnetic beads are treated with biotinylated small molecule ligands for 30 minutes at room temperature to generate affinity resins for kinase assays. The liganded beads are blocked with excess biotin and washed with blocking buffer (Pierce SeaBlock, 1% BSA, 0.05% Tween 20 and 1 mM DTT) to remove unbound ligand and to reduce nonspecific binding. […] Test compound is prepared as a 40×stock in 100% DMSO and directly diluted into the assay. […] The kinase concentration in the eluates is measured by qPCR. […]
(§4) The percent inhibition values, and the 3-point concentration response data are subsequently determined and analyzed with NGR software, and non-standard IC50 values are calculated from the resulting curve fit. […]

Amino acid sequences for entries named in this document (tags omitted). Residues count along the entry.
UniProt P07333, 538-972 limits assumed: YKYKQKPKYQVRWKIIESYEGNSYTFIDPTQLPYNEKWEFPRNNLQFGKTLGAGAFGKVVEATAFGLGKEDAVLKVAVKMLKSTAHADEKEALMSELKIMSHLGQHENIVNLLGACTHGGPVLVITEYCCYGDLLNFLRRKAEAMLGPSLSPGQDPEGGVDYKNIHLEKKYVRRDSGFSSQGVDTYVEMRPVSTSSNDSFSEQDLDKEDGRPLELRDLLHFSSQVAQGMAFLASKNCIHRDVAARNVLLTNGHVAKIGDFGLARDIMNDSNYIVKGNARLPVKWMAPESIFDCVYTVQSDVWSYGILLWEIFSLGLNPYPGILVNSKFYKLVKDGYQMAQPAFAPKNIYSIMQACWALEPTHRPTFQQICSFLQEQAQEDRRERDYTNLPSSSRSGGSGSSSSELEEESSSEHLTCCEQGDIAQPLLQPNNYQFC
UniProt P07333, 20-972: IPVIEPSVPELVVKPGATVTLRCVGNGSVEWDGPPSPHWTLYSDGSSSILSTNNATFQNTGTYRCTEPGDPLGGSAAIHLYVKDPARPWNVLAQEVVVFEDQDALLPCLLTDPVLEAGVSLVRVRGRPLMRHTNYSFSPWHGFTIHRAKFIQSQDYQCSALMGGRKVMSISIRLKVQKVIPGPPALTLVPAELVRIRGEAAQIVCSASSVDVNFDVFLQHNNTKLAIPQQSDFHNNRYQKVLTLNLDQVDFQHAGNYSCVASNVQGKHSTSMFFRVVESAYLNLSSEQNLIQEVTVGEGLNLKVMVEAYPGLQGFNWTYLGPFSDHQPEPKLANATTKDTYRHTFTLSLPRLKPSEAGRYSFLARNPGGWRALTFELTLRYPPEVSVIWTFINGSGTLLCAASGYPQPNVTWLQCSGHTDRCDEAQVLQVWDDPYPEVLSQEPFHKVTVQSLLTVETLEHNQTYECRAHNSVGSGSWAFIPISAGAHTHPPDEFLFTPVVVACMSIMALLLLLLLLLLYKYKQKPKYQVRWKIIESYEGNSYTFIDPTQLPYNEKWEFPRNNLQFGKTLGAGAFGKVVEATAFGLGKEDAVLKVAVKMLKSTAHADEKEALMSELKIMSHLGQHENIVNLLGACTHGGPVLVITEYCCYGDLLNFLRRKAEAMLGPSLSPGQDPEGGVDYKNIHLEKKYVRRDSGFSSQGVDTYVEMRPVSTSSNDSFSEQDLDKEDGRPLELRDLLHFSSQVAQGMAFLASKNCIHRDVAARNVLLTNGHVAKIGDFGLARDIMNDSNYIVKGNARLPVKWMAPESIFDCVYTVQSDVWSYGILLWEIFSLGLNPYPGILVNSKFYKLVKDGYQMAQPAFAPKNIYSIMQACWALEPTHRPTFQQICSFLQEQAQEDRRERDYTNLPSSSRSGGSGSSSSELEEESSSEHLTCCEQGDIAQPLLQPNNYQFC

A further assay addresses CSF1R (Homo sapiens, UniProt P07333). The assay can be described thus: biochemical. Here is the method:
as §1, §2, §3, §4

Molecules are shown by their SMILES.

In general, inhibition refers to the change of the read-out against control, counted positive when it falls. On to `COc1ccc(COc2ncc(Cc3ccnc(-c4cnn(C)c4)n3)cc2OC)nc1` [Example 1, 4-({5-Methoxy-6-[(5-methoxypyridin-2-yl)methoxy]pyridin-3-yl}methyl)-2-(1-methyl-1H-pyrazol-4-yl)pyrimidine], for which the inhibition at 2 µM came to 98.9% against CSF1R autoinhibited and 99% on CSF1R.

The values are drawn from US12577229B2, “Substituted {5-methoxy-6-[(5-methoxypyridin-2-yl)methoxy]pyridin-3-yl} methyl compounds as CSF-1R inhibitors” (Eli Lilly and Company, priority 2020, dated 2026).
